Source: ChEMBL document CHEMBL1132816, “Arylacetamides as peripherally restricted kappa opioid receptor agonists” (Bioorg Med Chem Lett, 2000)

Key:
[1] = molecular target: Opioid receptors; mu & kappa (Homo sapiens) (UniProt P41145+P35372); experiment: Selectivity was evaluated as ratio of Ki of mu receptor by displacement of [3H]diprenorphine to that of kappa receptor
[2] = molecular target: Opioid receptors; delta & kappa (Homo sapiens) (UniProt P41145+P41143); experiment: Selectivity was evaluated as ratio of Ki of delta receptor by displacement of [3H]diprenorphine to that of kappa receptor

Row | SMILES | Selectivity [1] | Selectivity [2]
1 | CN(C(=O)Cc1ccc(N)cc1)[C@H](CN1CCCC1)c1ccccc1 | > 1000 | > 1000
2 | CN(C(=O)Cc1ccc(N(S(C)(=O)=O)S(C)(=O)=O)cc1)[C@H](CN1CCCC1)c1ccccc1 | > 1000 | > 1000
3 | CN(C(=O)Cc1ccccc1C(F)(F)F)[C@H](CN1CCCC1)c1ccccc1 | > 1000 | > 1000
4 | CN(C(=O)Cc1ccc(Cl)c(Cl)c1N(S(C)(=O)=O)S(C)(=O)=O)[C@H](CN1CCCC1)c1ccccc1 | 320 | 33
5 | CN(C(=O)Cc1ccccc1N)[C@H](CN1CCCC1)c1ccccc1 | > 1000 | > 1000
6 | CN(C(=O)Cc1ccc(Cl)c(Cl)c1[N+](=O)[O-])[C@H](CN1CCCC1)c1ccccc1 | 430 | 580
7 | CN(C(=O)Cc1cccc(C(F)(F)F)c1)[C@H](CN1CCCC1)c1ccccc1 | > 880 | > 1000
8 | CN(C(=O)Cc1ccccc1N(S(C)(=O)=O)S(C)(=O)=O)[C@H](CN1CCCC1)c1ccccc1 | > 1000 | > 1000
9 | CN(C(=O)Cc1ccc(Cl)c(Cl)c1N)[C@H](CN1CCCC1)c1ccccc1 | 260 | 140
10 | CN(C(=O)Cc1cccc(N)c1)[C@H](CN1CCCC1)c1ccccc1 | > 1000 | > 1000
11 | CN(C(=O)Cc1ccc(Cl)c(Cl)c1)[C@H](CN1CCCC1)c1ccccc1 [ICI-199,441] | > 1000 | 600
12 | CN(C(=O)Cc1cccc(N(S(C)(=O)=O)S(C)(=O)=O)c1)[C@H](CN1CCCC1)c1ccccc1 | > 1000 | > 1000
